Screening results from PubChem BioAssay.
DRD3 antagonist = antagonists of human D3 dopamine receptor. D3R cells, DiscoveRx beta-arrestin luminescence, antagonist mode; hits give low values. max response, negative = inhibition, %. 2.5% of 360,000 active. AID 652054; in the data active = max response below about -50%; inconclusive = no clear call, values can overlap the other calls
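Cells expressing the human receptor were seeded at 1500 cells/well, incubated overnight at 37 degrees C in 5% CO2, then exposed to library compounds with dopamine controls for 90 minutes at 37 degrees C before luminescent detection.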
Rango complex inh = inhibitors of Rango-importin beta complex formation | 0.031% of 340,000 active | Rango CFP/YFP FRET sensor + importin beta, 45 min | Q14974 | Potency, µM (series often up to 92.2 µM); note: nearly all actives have a fitted effect of over 15% in size
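FRET biosensor (snurportin 1 IBB flanked by EYFP and cerulean), 50 nM, with compound 5 min, then 0.125 microM importin beta in PBS, 1 mM DTT, 0.02% Tween-20, 0.1% BSA. CFP/YFP ratio read after 45 min at room temperature; pre-read flags interference.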
Rango release inh = inhibitors of RanGTP-induced Rango-importin beta complex dissociation. O95149+P62826. Biochemical FRET Rango-importin beta, RanGTP-induced dissociation. Potency, µM (top dose mostly 46.1 µM). 0.071% of 340,000 active. AID 540253; note: nearly all actives have a fitted effect of over 45% in size
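Rango/importin beta premix (0.1/0.25 uM final), PBS + 1 mM DTT + 0.02% Tween-20 + 0.1% BSA; cpd 5 min RT; FRET pre-read; + RanGTP-RCC1 (0.6 uM Ran, 2 mM GTP, 0.2 uM RCC1); 45 min RT; FRET post-read, ex 430, em 486/530 nm.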
PTAP TSG101 blk = blocks PTAP/TSG101 interaction to inhibit HIV-1 budding. 340,000 tested, under 10 active. Potency, µM (titrated, usually from 115 µM), usual class: inhibitors. Q99816. Fluorescence polarization, FITC-PTAP peptide / Tsg101 binding; active = well fitted inhibition curve with a large enough effect in the main read-out, with a control signal flat, not every such curve was filed as active; inconclusive = small, poorly fitted or top-dose-only effect, or effect the other way, or a change in a side signal; inactive = no such curve, though single readings can be large or run the other way
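Compounds were pin-transferred onto Tsg101 binding domain (10 uM final) in HEPES pH 7.5 buffer, then FITC-PTAP peptide was added at 50 nM final. After 20 min at RT, polarization reported peptide displacement across a qHTS concentration series.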
DRD3 agonist = activates the human D3 dopamine receptor; D3R DiscoveRx beta-arrestin cells, luminescence, 90 min; max activation, %; 0.58% of 410,000 active; in the data active = max activation above about 30%
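Cells at 1500/well, incubated overnight, then treated with pinned compounds (dopamine as control) for 90 min at 37 degrees C. DiscoveRx reagent added for 30 - 60 minutes at room temperature; luminescence read.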
MmCpn inh = inhibitors of Methanococcus maripaludis chaperonin TRiC (MmCpn); purified Mm-Cpn ATPase, ADP Transcreener TR-FRET; Potency, µM (titrated, usually from 76.9 µM), usual class: inhibitors; 0.031% of 330,000 active; AID 504842; active = well fitted inhibition curve with a large enough effect; inconclusive = small, poorly fitted or top-dose-only effect; note: nearly all actives have a fitted effect of over 80% in size
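ATPase read-out: TR-FRET ADP immunoassay (anti-ADP Eu cryptate vs ADP-d2), ex 320 nm, em 590/665 nm; signal drops as ADP forms. Enzyme 25 nM, ATP 10 uM, 30 min at 37°C after 10 min compound preincubation.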
Numbers stand for hits; i = inactive; ? = inconclusive; nt = no result given. Most compounds without a hit are left out; they make up all but 2.9% or so of the library. Unless noted, calls come from the whole dose curve.

SMILES	DRD3 antagonist	Rango complex inh	Rango release inh	PTAP TSG101 blk	DRD3 agonist	MmCpn inh
O=C(c1ccccc1)N1CCN(C(=O)c2ccccc2)C1c1ccccc1	-51.0	i	i	i	i	i
O=C(NCc1nnc(SCc2ccc(F)cc2)n1-c1ccccc1)C12CC3CC(CC(C3)C1)C2	-51.1	i	i	i	i	i
Cc1cc(Cl)ccc1OCC(=O)OC(C)C(=O)N(C)C (stereo not given)	i	i	i	i	i	i
Cc1cc(Cl)ccc1OCC(=O)OC(C)C(=O)NC(N)=O (stereo not given)	i	i	i	i	45.7	i
C#CCOCCOCCOCCNc1nc(N2CCN(C(=O)CCCCCCCCCCNC(=O)[C@H](CCCCN)n3cc(C)nn3)CC2)nc(N2CCN(C(=O)CCCCCCCCCCNC(=O)[C@H](CCCN=C(N)N)n3cc(C[C@@H](C)CC)nn3)CC2)n1	?	i	?	i	i	?
CC[C@H](C)Cc1cn([C@@H](CCCN=C(NC(=O)OC(C)(C)C)NC(=O)OC(C)(C)C)C(=O)NCCCCCCCCCCC(=O)N2CCN(C(=O)OC(C)(C)C)CC2)nn1	i	i	i	i	i	i
C#CCOCCOCCOCCNc1nc(N2CCN(C(=O)CCCCCCCCCCNC(=O)[C@H](CCCCN)n3cc(C)nn3)CC2)nc(N2CCN(C(=O)CCCCCCCCCCNC(=O)[C@@H]([C@H](C)O)n3cc(C)nn3)CC2)n1	i	i	i	i	i	i
Cc1cn([C@@H](CCCCNC(=O)OC(C)(C)C)C(=O)NCCCCCCCCCCC(=O)N2CCN(C(=O)OC(C)(C)C)CC2)nn1	i	i	i	i	66.4	i
C#CCOCCOCCOCCNc1nc(N2CCN(C(=O)CCCCCCCCCCNC(=O)[C@H](CCCCN)n3cc(C[C@@H](C)CC)nn3)CC2)nc(N2CCN(C(=O)CCCCCCCCCCNC(=O)[C@H](CCCN=C(N)N)n3cc(C[C@@H](C)CC)nn3)CC2)n1	-76.3	65.1µM	?	i	i	i
C#CCOCCOCCOCCNc1nc(N2CCN(C(=O)CCCCCCCCCCNC(=O)[C@H](CCCCN)n3cc(C[C@@H](C)CC)nn3)CC2)nc(N2CCN(C(=O)CCCCCCCCCCNC(=O)[C@@H]([C@H](C)O)n3cc(C)nn3)CC2)n1	-59.1	i	i	i	i	i
CC(C)c1ccc(NC(=O)C2CCCN(S(=O)(=O)c3ccc4[nH]c(=O)ccc4c3)C2)cc1 (stereo not given)	nt	nt	nt	nt	i	nt
CCN(CCCNC(=O)c1ccc(Sc2ccc(Cl)cc2)c(NC(C)=O)c1)c1ccccc1	nt	nt	nt	nt	i	nt
COc1ccc(S(=O)(=O)NN(C)c2ncc(C(F)(F)F)cc2Cl)cc1	i	i	i	i	i	i
CC1CCN(C(=O)c2ncn(C)c2C(=O)N2CCC(C)CC2)CC1	-51.1	i	i	i	i	i
Cc1ccc(CNC(=O)CCc2ccc(S(=O)(=O)NCC(C)C)cc2)cc1	-51.3	i	i	i	i	i
COc1ccc(-c2ccc3c(c2)c(Sc2ccccc2)c(-c2cc(OC)cc(OC)c2)n3C)cc1	i	nt	nt	nt	i	nt
COc1cc(OC)cc(-c2c(Sc3ccccc3)c3cc(-c4cnc(OC)nc4)ccc3n2C)c1	?	nt	nt	nt	40.0	nt
O=C(CSc1n[nH]c(-c2ccncc2)n1)c1cccc([N+](=O)[O-])c1	-69.1	i	i	i	i	i
CSc1cccc(NC(=O)CC(c2ccc(F)cc2)N2Cc3ccccc3C2=O)c1 (stereo not given)	nt	nt	nt	nt	i	nt
Cc1cc(C)c2c(N)c(C(=O)Nc3cccc(C)c3C)sc2n1	i	?	?	i	92.0	i
CC[C@H](C)[C@H]1CNC(=S)N1CC1CCN(CCC(C)(C)C)CC1	i	i	i	i	i	nt
CC(C)C[C@H]1CNC(=S)N1CC1CCN(CC2CCC(C(C)(C)C)CC2)CC1 (stereo not given in full)	-62.7	i	i	i	i	nt
CC(C)C[C@H]1CNC(=S)N1CC1CCN(CCC23CC4CC(CC(C4)C2)C3)CC1	-72.3	i	i	i	i	nt
CC(C)C[C@H]1CNC(=S)N1CC1CCN(CC2CCCC2)CC1	?	i	i	i	i	nt
CC[C@H](C)[C@H]1CNC(=S)N1CC1CCN(CCCCc2ccccc2)CC1	-64.6	i	i	i	i	nt
SMILES	DRD3 antagonist	Rango complex inh	Rango release inh	PTAP TSG101 blk	DRD3 agonist	MmCpn inh
CC[C@H](C)[C@H]1CNC(=S)N1CC1CCN(CCCC2CCCC2)CC1	-77.8	i	i	i	i	nt
COC(=O)c1c(N)n(-c2ccc(OC)c(OC)c2)c2nc3ccccc3nc12	nt	nt	nt	nt	i	nt
CCN(C(=O)C1CCCN(c2ncnc3c2nc2n3CCCCC2)C1)c1cccc(C)c1 (stereo not given)	nt	nt	nt	nt	i	nt
CC(C)C[C@H]1CNC(=S)N1CC1CCN(CCCC2CCCCC2)CC1	-100.7	i	i	i	i	nt
COc1cccc(NC(C)(C)c2nnnn2-c2c(C)cccc2C)c1	i	i	i	i	i	i
CCc1ccc(Sc2cc(C(=O)NCc3cccc(OC)c3)c3ccccc3n2)cc1	nt	nt	nt	nt	i	nt
CC(C)[C@@H]1CC[C@@H](C)CC1=O	nt	nt	nt	nt	i	nt
Cc1oc(-c2ccccc2F)nc1CN1CCC(C(=O)NCCC2=CCCCC2)CC1	-56.8	i	i	i	i	i
Cc1ccccc1-c1nc(CN2CCC(C(=O)NCCCN3CCCC3)CC2)c(C)o1	-57.0	i	i	i	i	i
Cc1ccccc1-c1nc(CN2CCC(C(=O)NCCCN3CCOCC3)CC2)c(C)o1	i	i	i	i	i	i
CCOC(=O)Cn1c(=O)n(C2CCCCC2)c2nc(-c3ccc(Cl)cc3)nc(C(N)=O)c21	nt	nt	nt	nt	i	nt
Cc1ccc2oc(=O)c3cc(C(=O)NCCc4ccc(Cl)cc4)sc3c2c1	nt	nt	nt	nt	i	nt
COc1ccc(-c2cc3c(=O)n(CC(=O)Nc4ccccc4C(F)(F)F)ccn3n2)cc1OC	nt	nt	nt	nt	i	nt
COc1ccc2[nH]c(C(=O)NCCc3ccccc3)cc2c1	i	i	i	i	i	i
COc1cc2[nH]c(C(=O)NCc3ccccc3)cc2c(OC)c1OC	-105.4	i	i	i	i	i
COc1cc2[nH]c(C(=O)NCCc3ccccc3)cc2c(OC)c1OC	-61.1	i	i	i	i	i
COc1cc2[nH]cc(C(=O)NCc3ccccc3)c(=O)c2cc1OC	i	i	i	i	i	i
O=C(/C=C/c1cccs1)NC(=S)Nc1ccc(S(=O)(=O)Nc2ccccc2C(F)(F)F)cc1	i	i	i	i	i	i
O=C(CSc1ccc(Cl)cc1)c1ccco1	-74.4	i	i	i	i	i
O=C(CN1CCN(S(=O)(=O)N2CCCCC2)CC1)Nc1cc(Cl)ccc1Cl	i	i	i	i	i	i
